# Measured values from PubChem BioAssay AID463195 (Sanford-Burnham Center for Chemical Genomics, 2010).
# The list shows a part of the results, in another mix than the full data. The source made the active and inactive calls.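 Rule for the calls: active = inhibition of 40% or more at the single tested concentration; inactive = the rest.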
# Test: growth inhibitors of isogenic TIM10 control yeast, primary screen, counter-screen for tim10-1 yeast inhibitor project, luminescence, uHTS (AID 463195);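 note: wild-type TIM10 isogenic control strain grown at permissive 25 °C; 0% = DMSO yeast wells and 100% = minimal medium wells without yeast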
# Details: S. cerevisiae TIM10 strain growth, BacTiter-Glo luminescence, 24 h; at 10 µM; hits give high values
row,SMILES,inhibition
1,CCN(CC)CCCOC(=O)C(O)(c1ccccc1)c1ccccc1,inactive: -2.58%
2,CC(C)(C)c1ccc(OP(C)(=O)Nc2ccc(SC(F)(F)F)cc2)cc1 (stereo not drawn),inactive: -9.16%
3,Cc1cccc(C)c1OP(C)(N)=O (stereo not drawn),inactive: -0.189%
4,O=[N+]([O-])c1cc([N+](=O)[O-])c(Nc2cccnc2)c([N+](=O)[O-])c1,inactive: 38.2%
5,COc1ccccc1OP(C)(=O)Nc1cc(Cl)ccc1C (stereo not drawn),inactive: -1.73%
6,COc1ccc(OP(C)(=O)Nc2cccc(F)c2)cc1 (stereo not drawn),inactive: -9.3%
7,Cc1cc(C)cc(OP(C)(N)=O)c1 (stereo not drawn),inactive: 1.23%
8,CCOC(=O)c1ccc(NP(C)(=O)Oc2ccccc2)cc1 (stereo not drawn),inactive: -3.24%
9,COc1ccccc1OP(C)(=O)Nc1ccc(C)cc1 (stereo not drawn),inactive: 4.64%
10,Cc1ccc(NP(C)(=O)Oc2ccccc2)c(C)c1 (stereo not drawn),inactive: 3.77%
11,COc1ccccc1OP(C)(=O)Nc1ccccc1 (stereo not drawn),inactive: -11.5%
12,CP(=O)(Nc1ccccc1Br)Oc1ccccc1 (stereo not drawn),inactive: -5.41%
13,CP(=S)(Nn1cnnc1)Oc1ccccc1 (stereo not drawn),inactive: 1.13%
14,CCc1ccc(OP(C)(=O)N2CCN(c3ccc([N+](=O)[O-])cc3)CC2)cc1 (stereo not drawn),inactive: 32.8%
15,CP(=O)(NC(=O)Nc1ccccc1)Oc1ccccc1 (stereo not drawn),inactive: -21.3%
16,Cc1cc(C)cc(OP(C)(=O)Nc2ccc(SC(F)(F)F)cc2)c1 (stereo not drawn),inactive: 4.95%
17,CP(=O)(Nc1ccc(SC(F)(F)F)cc1)Oc1ccc(Cl)cc1 (stereo not drawn),inactive: 22%
18,Cc1cccc(C)c1OP(C)(=O)Nc1ccc(SC(F)(F)F)cc1 (stereo not drawn),inactive: 14.5%
19,CP(=O)(Oc1ccccc1)OC(c1ccccc1)C(F)(F)F (stereo not drawn),inactive: 2.05%
20,CP(=O)(Nc1ccccn1)Oc1ccc(Cl)cc1 (stereo not drawn),inactive: -12.1%
21,CCOP(C)(=S)SCC(=O)NC(C)C(=O)O (stereo not drawn),inactive: -1.67%
22,O=[N+]([O-])c1cc([N+](=O)[O-])c(O)c([N+](=O)[O-])c1.c1ccc(Oc2ccncc2)cc1,inactive: 8.56%

row,SMILES,inhibition
1,CCOC(=O)c1ccc(NP(C)(=O)Oc2ccc(OC)cc2)cc1 (stereo not drawn),inactive: -6.68%
2,O=[N+]([O-])c1cc([N+](=O)[O-])c(-n2nnc3ccccc32)c([N+](=O)[O-])c1,inactive: 14.1%
3,Cc1nc2ccc3ccccc3c2s1.O=[N+]([O-])c1cc([N+](=O)[O-])c(O)c([N+](=O)[O-])c1,inactive: -8.49%
4,O=[N+]([O-])c1cc([N+](=O)[O-])c(-c2cnn(-c3ccccc3)c2)c([N+](=O)[O-])c1,active: 74.1%
5,O=[N+]([O-])c1cc([N+](=O)[O-])c(Nc2nnnn2CCO)c([N+](=O)[O-])c1,inactive: 8.9%
6,CC1=C2N=C(C=C3N=C(C(C)=C4[N-][C@@](C)([C@@H]5N=C1[C@](C)(CCC(=O)NC[C@@H](C)OP(=O)([O-])O[C@H]1[C@@H](O)[C@@H](n6cnc7cc(C)c(C)cc76)O[C@@H]1CO)[C@H]5CC(N)=O)[C@@](C)(CC(N)=O)[C@@H]4CCC(N)=O)[C@@](C)(CC(N)=O)[C@@H]3CCC(N)=O)C(C)(C)[C@@H]2CCC(N)=O.[C-]#N.[Co+3],inactive: 13.9%
7,CCOC(=O)C(CC)C1=NC(C)(C)Cc2ccccc21.O=[N+]([O-])c1cc([N+](=O)[O-])c(O)c([N+](=O)[O-])c1 (stereo not drawn),inactive: -12.8%
8,CP(=O)(Nc1ccc(SC(F)(F)F)cc1)Oc1ccccc1 (stereo not drawn),inactive: 2.33%
9,CCCOc1ccc(NP(C)(=O)Oc2ccc(Cl)cc2)cc1 (stereo not drawn),inactive: 23.7%
10,CN1CCCCC1COC(=O)C1(O)c2ccccc2CCc2ccccc21 (stereo not drawn),inactive: -0.405%
11,COc1ccccc1OP(C)(=O)Nc1c(C)cccc1C (stereo not drawn),inactive: 4.68%
12,O=C(O)c1cccc(Nc2c([N+](=O)[O-])cc([N+](=O)[O-])cc2[N+](=O)[O-])c1,inactive: -9.31%
13,CC1=NCCc2c1[nH]c1ccccc21.O=[N+]([O-])c1cc([N+](=O)[O-])c(O)c([N+](=O)[O-])c1,inactive: -4.13%
14,Cc1cc(C)cc(OP(C)(=O)Nc2ccc(C)cc2C)c1 (stereo not drawn),inactive: -20.7%
15,CCOC(=O)c1ccc(NP(C)(=O)Oc2cc(C)cc(C)c2)cc1 (stereo not drawn),inactive: 0.297%
16,COc1ccccc1OP(C)(=O)Nc1cccc(Br)c1 (stereo not drawn),inactive: 4.59%
17,CP(=O)(Nc1cccc(Br)c1)Oc1ccccc1 (stereo not drawn),inactive: 5.98%
18,Cc1cc(C)cc(OP(C)(=O)Nc2ccccn2)c1 (stereo not drawn),inactive: 16.6%
19,Cc1ccc(C)c(NP(C)(=O)Oc2ccccc2)c1 (stereo not drawn),inactive: -2.94%
20,CC(C)c1ccc(OP(C)(=O)Nc2ccc(SC(F)(F)F)cc2)cc1 (stereo not drawn),inactive: -8.17%
21,CP(=O)(Nc1ccccc1F)Oc1ccccc1 (stereo not drawn),inactive: 14.5%
